# Data from ChEMBL document CHEMBL3797035 (Bioorg Med Chem, 2016).
# Chains of the proteins cited; added tags and fusions are not shown.
# UniProt P14416, whole entry: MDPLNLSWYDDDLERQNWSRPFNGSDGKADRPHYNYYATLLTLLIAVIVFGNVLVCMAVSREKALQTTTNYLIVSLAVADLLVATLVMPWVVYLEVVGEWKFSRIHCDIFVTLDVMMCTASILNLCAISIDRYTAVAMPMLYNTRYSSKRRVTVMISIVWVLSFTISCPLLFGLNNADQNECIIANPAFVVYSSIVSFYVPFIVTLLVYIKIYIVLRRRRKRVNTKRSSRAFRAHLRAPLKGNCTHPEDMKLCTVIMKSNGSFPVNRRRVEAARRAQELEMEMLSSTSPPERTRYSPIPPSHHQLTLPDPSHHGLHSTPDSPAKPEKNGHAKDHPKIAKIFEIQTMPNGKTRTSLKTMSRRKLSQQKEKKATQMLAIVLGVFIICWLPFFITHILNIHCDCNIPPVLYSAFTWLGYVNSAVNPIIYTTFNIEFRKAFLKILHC
# Molecular target: D(2) dopamine receptor (Homo sapiens, UniProt P14416)
# Assay: biochemical
# Format: cell-based, CHO
compound,measurement,value
CCCN(CCC)[C@H]1CCc2c(O)cccc2C1,Ki,7.1 nM
